# The entries are a selection whose mix differs from that of the whole data set. Some salts or complexes appear as unconnected parts, following the source record. Activity calls are given as the source filed them.
# Assay: mitochondrial permeability transition pore inhibitors, primary screen, biochemical, isolated mouse mitochondria, absorbance (AID 602449);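 note: 0% = DMSO wells given calcium and 100% = 1 mM EGTA wells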
# Details: Ca2+ swelling absorbance, 30 min, at 10 µM, stronger effect = higher value
row,Structure (SMILES),inhibition
1,COc1ccc(NP(C)(=O)Oc2ccccc2OC)cc1 (centres undefined),inactive: 0%
2,CN(C)CCOC(=O)C(O)(c1ccccc1)C1CCCCC1 (centres undefined),inactive: 44.5%
3,COc1ccc(OP(C)(=O)Nc2cccc(Br)c2)cc1 (centres undefined),inactive: 1.6%
4,Cc1c(C(c2ccc3c(c2)OCO3)c2c(C)n(C)n(-c3ccccc3)c2=O)c(=O)n(-c2ccccc2)n1C.O=[N+]([O-])c1cc([N+](=O)[O-])c(O)c([N+](=O)[O-])c1,inactive: 0.6%
5,O=[N+]([O-])c1cc([N+](=O)[O-])c(NCC2CCS(=O)(=O)C2)c([N+](=O)[O-])c1 (centres undefined),inactive: 1.2%
6,Cc1cc(-c2cccc3ccccc23)c(C)cn1.O=[N+]([O-])c1cc([N+](=O)[O-])c(O)c([N+](=O)[O-])c1,inactive: 4.6%
7,O=[N+]([O-])c1ccc(OP2(=O)COCCO2)cc1 (centres undefined),inactive: -0.2%
8,CCOP(C)(=S)SCC(=O)NC(C)(CC)C(=O)O (centres undefined),inactive: -1.3%
9,CP(=O)(Nc1ccc(SC(F)(F)F)cc1)Oc1ccc(F)cc1 (centres undefined),inactive: 9.6%
10,O=[N+]([O-])c1cc([N+](=O)[O-])c(C(F)(F)F)c([N+](=O)[O-])c1O,inactive: -1.8%
11,Cc1ccccc1NP(C)(=O)Nc1ccccc1C,inactive: -2.4%
12,CP(=O)(Nc1ccc2c(c1)OCCO2)Oc1ccccc1 (centres undefined),inactive: -4.2%
13,CC(C)c1ccc(OP(C)(=O)Nc2ccc(SC(F)(F)F)cc2)cc1 (centres undefined),inactive: 18.7%
14,CP(=O)(Nc1ccccc1F)Oc1ccccc1 (centres undefined),inactive: -0.8%
15,O=[N+]([O-])c1cc([N+](=O)[O-])c(Nc2ccc(Cl)cc2)c([N+](=O)[O-])c1,active: 95.7%
16,COc1ccc2c(c1O)-c1c(O)c(OC)cc3c1[C@H](C2)[N+](C)(C)CC3.O=[N+]([O-])c1cc([N+](=O)[O-])c([O-])c([N+](=O)[O-])c1[O-],inactive: -0.4%
17,O=C(OCCN1CCN(CCOCc2ccccc2)CC1)C(O)(c1ccccc1)c1ccccc1,inactive: 0.5%
18,O=C(OC1CN2CCC1CC2)c1ccc([N+](=O)[O-])cc1 (centres undefined),inactive: 0.6%
19,COc1ccc(OP(C)(=O)Nc2ccc(SC(F)(F)F)cc2)cc1 (centres undefined),inactive: -0.9%
20,CCOC(=O)c1ccc(NP(C)(=O)Oc2ccc(F)cc2)cc1 (centres undefined),inactive: -0.5%
21,CCN(CC)CCCNc1ccccc1[N+](=O)[O-].O=[N+]([O-])c1cc([N+](=O)[O-])c(O)c([N+](=O)[O-])c1,inactive: -2.3%
22,CCCCCOc1ccc(NP(C)(=O)Oc2ccc(Cl)cc2Cl)cc1 (centres undefined),inactive: 7%
23,O=[N+]([O-])c1cc([N+](=O)[O-])c(OC2CCCCC2O)c([N+](=O)[O-])c1 (centres undefined),inactive: 1.5%
24,CP(=O)(Nc1ccccc1)Oc1ccc(F)cc1 (centres undefined),inactive: -1.6%
25,CCN(CC)CCCOC(=O)C(O)(c1ccccc1)C1CCCCC1 (centres undefined),inactive: -0.9%

row,Structure (SMILES),inhibition
1,Cc1c([N+](=O)[O-])cc([N+](=O)[O-])c(Br)c1[N+](=O)[O-],inactive: -0.6%
2,COc1ccc(OP(C)(=O)Nc2ccccc2Br)cc1 (centres undefined),inactive: 3.8%
3,COc1ccccc1OP(C)(=O)Nc1ccc(C)c(C)c1 (centres undefined),inactive: 1%
4,Cc1cc(C)cc(OP(C)(=O)Nc2cccc(C(F)(F)F)c2)c1 (centres undefined),inactive: -1.4%
5,O=C1C(O)=C([N+](=O)[O-])C(=O)C(O)=C1[N+](=O)[O-],inactive: 0.5%
6,CCCCCCCCCCCCCCCC1C[N+](C)(C)CCOP(C)(=O)O1 (centres undefined),inactive: -1.3%
7,CP(=O)(Nc1ccc(Cl)cc1Cl)Oc1ccccc1 (centres undefined),inactive: -0.3%
8,CP(=O)(OCCOc1ccccc1)OCCOc1ccccc1,inactive: -2.3%
9,CN(C)CCOC(=O)C(O)(c1ccccc1)C1CCCC1 (centres undefined),inactive: -1.1%
10,COc1ccc(OP(C)(=O)Nc2ccccn2)cc1 (centres undefined),inactive: 0%
11,COc1ccccc1OP(C)(=O)Nc1ccc(Br)cc1 (centres undefined),inactive: 0.6%
12,CCc1ccc(OP(C)(=O)O)cc1,inactive: -1.3%
13,COc1ccccc1OP(C)(=O)Nc1ccc(C)cc1C (centres undefined),inactive: -0.2%
14,CP(=O)(Nc1ccccn1)Oc1ccccc1 (centres undefined),inactive: -0.7%
15,Cc1c(NP(C)(=O)Oc2ccc(C(C)C)cc2)c(=O)n(-c2ccccc2)n1C (centres undefined),inactive: 0.8%
16,O=[N+]([O-])c1cc([N+](=O)[O-])c(Nc2ccccn2)c([N+](=O)[O-])c1,inactive: 0%
17,CCc1ccc(OP(C)(=O)Nc2cccnc2)cc1 (centres undefined),inactive: 0.9%
18,CP(=O)(Oc1ccccc1)N1CCOC1=O (centres undefined),inactive: -0.7%
19,O=C(OCCCN1CCCC1)C(O)(c1ccccc1)C1CCCCC1 (centres undefined),inactive: -1.4%
20,COc1ccccc1OP(C)(=O)Nc1c(C)n(C)n(-c2ccccc2)c1=O (centres undefined),inactive: -2.4%
21,COc1ccc(OP(C)(=O)Nc2ccc(Br)cc2)cc1 (centres undefined),inactive: 18.8%
22,CCN(CC)CC(O)COC(=O)C(O)(c1ccccc1)C1CCCCC1 (centres undefined),inactive: -1.7%
23,CN(C)C(=O)c1c([N+](=O)[O-])cc([N+](=O)[O-])cc1[N+](=O)[O-],inactive: 0.7%
24,CP(=O)(Nc1ccc(Cl)cc1)Oc1ccc(F)cc1 (centres undefined),inactive: -1.8%
25,COc1ccccc1OP(C)(=O)Nc1ccccc1Br (centres undefined),inactive: 2.2%

row,Structure (SMILES),inhibition
1,CC(C)(C)c1ccc(OP(C)(=O)O)cc1,inactive: 0%
2,CP(=O)(OC12CC3CC(CC(C3)C1)C2)OC12CC3CC(CC(C3)C1)C2,inactive: -0.4%
3,CCOC(=O)c1ccc(NP(C)(=O)Oc2ccc(Cl)cc2)cc1 (centres undefined),inactive: 1.8%
4,COc1ccccc1OP(C)(=O)Nc1ccccc1 (centres undefined),inactive: -0.2%
5,CP(=O)(Nc1ccccc1Br)Oc1ccccc1 (centres undefined),inactive: 10.2%
6,CP(=S)(Nn1cnnc1)Oc1ccccc1 (centres undefined),inactive: -2%
7,Cc1cc(C)cc(OP(C)(=O)Nc2ccc(SC(F)(F)F)cc2)c1 (centres undefined),inactive: -6.1%
8,CP(=O)(NC(=O)Nc1ccccc1)Oc1ccccc1 (centres undefined),inactive: -0.8%
9,CCc1ccc(OP(C)(=O)N2CCN(c3ccc([N+](=O)[O-])cc3)CC2)cc1 (centres undefined),inactive: 14.5%
10,CP(=O)(Oc1ccccc1)OC(c1ccccc1)C(F)(F)F (centres undefined),inactive: -1.9%
11,Cc1cccc(C)c1OP(C)(=O)Nc1ccc(SC(F)(F)F)cc1 (centres undefined),inactive: -2.2%
12,Cc1ccc(Nc2c([N+](=O)[O-])cc([N+](=O)[O-])cc2[N+](=O)[O-])cc1,inactive: 18.7%
13,CP(=O)(Nc1ccc(SC(F)(F)F)cc1)Oc1ccc(Cl)cc1 (centres undefined),inactive: 17.9%
14,CP(=O)(Nc1ccccn1)Oc1ccc(Cl)cc1 (centres undefined),inactive: -0.5%
15,CCOP(C)(=S)SCC(=O)NC(C)C(=O)O (centres undefined),inactive: -0.2%
16,CCOC(=O)c1ccc(NP(C)(=O)Oc2ccc(OC)cc2)cc1 (centres undefined),inactive: 0.3%
17,O=[N+]([O-])c1cc([N+](=O)[O-])c(O)c([N+](=O)[O-])c1.c1ccc(Oc2ccncc2)cc1,inactive: 0.3%
18,CCN(CC)CCCOC(=O)C(O)(c1ccccc1)c1ccccc1,inactive: 0.6%
19,COc1ccccc1-c1ccccn1.O=[N+]([O-])c1cc([N+](=O)[O-])c(O)c([N+](=O)[O-])c1,inactive: 1%
20,Cc1cccc(C)c1OP(C)(N)=O (centres undefined),inactive: -0.8%
21,CC(C)(C)c1ccc(OP(C)(=O)Nc2ccc(SC(F)(F)F)cc2)cc1 (centres undefined),inactive: 13.2%
22,O=[N+]([O-])c1ccc2c(c1)C=Nc1ccccc1O2,inactive: -1%
23,O=[N+]([O-])c1cc([N+](=O)[O-])c(Nc2cccnc2)c([N+](=O)[O-])c1,active: 102%
24,COc1ccc(OP(C)(=O)Nc2cccc(F)c2)cc1 (centres undefined),inactive: -1.6%
25,COc1ccccc1OP(C)(=O)Nc1cc(Cl)ccc1C (centres undefined),inactive: 0.1%

row,Structure (SMILES),inhibition
1,Cc1cc(C)cc(OP(C)(N)=O)c1 (centres undefined),inactive: -1.1%
2,CCOC(=O)c1ccc(NP(C)(=O)Oc2ccccc2)cc1 (centres undefined),inactive: -0.5%
3,Cc1ccc(NP(C)(=O)Oc2ccccc2)c(C)c1 (centres undefined),inactive: -2.8%
4,COc1ccccc1OP(C)(=O)Nc1ccc(C)cc1 (centres undefined),inactive: 16.4%
5,O=C(O)c1cccc(Nc2c([N+](=O)[O-])cc([N+](=O)[O-])cc2[N+](=O)[O-])c1,inactive: 0.7%
6,CC1=NCCc2c1[nH]c1ccccc21.O=[N+]([O-])c1cc([N+](=O)[O-])c(O)c([N+](=O)[O-])c1,inactive: 2.6%
7,Cc1cc(C)cc(OP(C)(=O)Nc2ccc(C)cc2C)c1 (centres undefined),inactive: 0.6%
8,CCOC(=O)c1ccc(NP(C)(=O)Oc2cc(C)cc(C)c2)cc1 (centres undefined),inactive: -3.3%
9,COc1ccccc1OP(C)(=O)Nc1cccc(Br)c1 (centres undefined),inactive: 1.2%
10,Cc1cc(C)cc(OP(C)(=O)Nc2ccccn2)c1 (centres undefined),inactive: -1.5%
11,CP(=O)(Nc1cccc(Br)c1)Oc1ccccc1 (centres undefined),inactive: -0.3%
12,Cc1ccc(C)c(NP(C)(=O)Oc2ccccc2)c1 (centres undefined),inactive: -0.2%
13,CN(Cc1cccnc1)C(=O)COc1ccc(Cl)c(Cl)c1.O=[N+]([O-])c1cc([N+](=O)[O-])c(O)c([N+](=O)[O-])c1,inactive: -1.1%
14,O=[N+]([O-])c1cc([N+](=O)[O-])c(-n2nnc3ccccc32)c([N+](=O)[O-])c1,inactive: -1.8%
15,Cc1nc2ccc3ccccc3c2s1.O=[N+]([O-])c1cc([N+](=O)[O-])c(O)c([N+](=O)[O-])c1,inactive: -0.6%
16,O=[N+]([O-])c1cc([N+](=O)[O-])c(-c2cnn(-c3ccccc3)c2)c([N+](=O)[O-])c1,inactive: 7.1%
17,CCOC(=O)C(CC)C1=NC(C)(C)Cc2ccccc21.O=[N+]([O-])c1cc([N+](=O)[O-])c(O)c([N+](=O)[O-])c1 (centres undefined),inactive: 1.9%
18,CC1=C2N=C(C=C3N=C(C(C)=C4[N-][C@@](C)([C@@H]5N=C1[C@](C)(CCC(=O)NC[C@@H](C)OP(=O)([O-])O[C@H]1[C@@H](O)[C@@H](n6cnc7cc(C)c(C)cc76)O[C@@H]1CO)[C@H]5CC(N)=O)[C@@](C)(CC(N)=O)[C@@H]4CCC(N)=O)[C@@](C)(CC(N)=O)[C@@H]3CCC(N)=O)C(C)(C)[C@@H]2CCC(N)=O.[C-]#N.[Co+3],inactive: 4.5%
19,O=[N+]([O-])c1cc([N+](=O)[O-])c(Nc2nnnn2CCO)c([N+](=O)[O-])c1,inactive: 1.8%
20,CCCOc1ccc(NP(C)(=O)Oc2ccc(Cl)cc2)cc1 (centres undefined),inactive: -0.6%
21,CP(=O)(Nc1ccc(SC(F)(F)F)cc1)Oc1ccccc1 (centres undefined),inactive: 3.5%
22,COc1ccc(-c2ccccn2)cc1.O=[N+]([O-])c1cc([N+](=O)[O-])c(O)c([N+](=O)[O-])c1,inactive: -0.3%
23,COc1ccccc1OP(C)(=O)Nc1c(C)cccc1C (centres undefined),inactive: -0.6%
24,CN1CCCCC1COC(=O)C1(O)c2ccccc2CCc2ccccc21 (centres undefined),inactive: -0.2%

# From PubChem BioAssay AID602449 (Sanford-Burnham Center for Chemical Genomics, 2012)
